This passage reports IC50 results from the Kinase Knowledgebase extract (Sharma et al. 2016).

Chains of the proteins cited; added tags and fusions are not shown.
UniProt P42336, whole entry, looked up: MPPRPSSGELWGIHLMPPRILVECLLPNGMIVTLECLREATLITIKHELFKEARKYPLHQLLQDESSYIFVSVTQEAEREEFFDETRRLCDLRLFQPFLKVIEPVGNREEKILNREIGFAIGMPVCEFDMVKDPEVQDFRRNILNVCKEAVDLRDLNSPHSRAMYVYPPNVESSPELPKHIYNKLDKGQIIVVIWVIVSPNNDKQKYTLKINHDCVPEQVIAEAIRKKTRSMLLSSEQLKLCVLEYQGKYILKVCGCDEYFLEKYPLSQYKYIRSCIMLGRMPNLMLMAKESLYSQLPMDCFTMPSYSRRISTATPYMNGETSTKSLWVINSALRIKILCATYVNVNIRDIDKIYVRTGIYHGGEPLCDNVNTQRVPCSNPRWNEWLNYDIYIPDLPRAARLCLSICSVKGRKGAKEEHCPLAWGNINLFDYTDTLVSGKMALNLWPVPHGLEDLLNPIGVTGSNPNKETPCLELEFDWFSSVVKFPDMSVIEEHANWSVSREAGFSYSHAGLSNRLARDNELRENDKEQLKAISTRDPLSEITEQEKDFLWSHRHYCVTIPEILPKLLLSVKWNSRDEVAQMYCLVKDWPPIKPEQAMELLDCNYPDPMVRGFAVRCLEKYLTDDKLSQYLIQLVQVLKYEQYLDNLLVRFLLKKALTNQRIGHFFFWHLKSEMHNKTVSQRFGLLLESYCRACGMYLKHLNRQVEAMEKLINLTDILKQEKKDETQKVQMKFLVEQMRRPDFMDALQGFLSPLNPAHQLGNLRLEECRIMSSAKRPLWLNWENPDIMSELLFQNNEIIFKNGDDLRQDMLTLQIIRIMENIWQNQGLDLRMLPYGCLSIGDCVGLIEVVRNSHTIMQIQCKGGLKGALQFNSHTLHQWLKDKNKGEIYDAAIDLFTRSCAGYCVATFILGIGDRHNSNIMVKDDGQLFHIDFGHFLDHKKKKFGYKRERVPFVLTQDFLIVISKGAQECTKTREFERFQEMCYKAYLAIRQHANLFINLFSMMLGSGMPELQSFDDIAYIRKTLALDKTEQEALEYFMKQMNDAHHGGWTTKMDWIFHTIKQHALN

This assay concerns the target PIK3CA (human) (UniProt P42336). Description: Cell-Based Assay. Particulars: bt20.
Take `COc1ccc(-c2ccc3ncc4c(c3n2)n(C2CCN(C(=O)CO)CC2)c(=O)n4C)cc1`: the IC50 was determined as 17.4 nM. On to `CNC(=O)N1CCC(n2c(=O)n(C)c3cnc4ccc(-c5cnn(C)c5)nc4c32)CC1`, for which the IC50 stood at 79.3 nM. Compared with the last compound, the IC50 is about 4.6-fold higher. With `CN1CCC(n2c(=O)n(C)c3cnc4ccc(-c5ccc(N(C)C)nc5)nc4c32)CC1`, the IC50 is 19.4 nM. This IC50 is about 4.1-fold lower than that of the compound before.

In turn, `COc1ncc(-c2ccc3ncc4c(c3n2)n([C@H]2CC[C@H](O)CC2)c(=O)n4C)cn1` registered an IC50 of 1000 nM.

The term IC50 denotes the concentration that inhibits the measured activity by half. Higher therefore signals lower potency.
